Only a part is listed here, and it is no random draw. Calls of active or inactive are those of the source. Calls come from the whole dose curve; as a rule, active = well fitted inhibition curve with a large enough effect; inconclusive = small, poorly fitted or top-dose-only effect; inactive = no such curve, though single readings can be large or run the other way.
% is set by controls: 0 for no effect and ±100 for the full control effect.

Amino acid sequences for entries named in this document (tags omitted).
UniProt P38398, whole entry: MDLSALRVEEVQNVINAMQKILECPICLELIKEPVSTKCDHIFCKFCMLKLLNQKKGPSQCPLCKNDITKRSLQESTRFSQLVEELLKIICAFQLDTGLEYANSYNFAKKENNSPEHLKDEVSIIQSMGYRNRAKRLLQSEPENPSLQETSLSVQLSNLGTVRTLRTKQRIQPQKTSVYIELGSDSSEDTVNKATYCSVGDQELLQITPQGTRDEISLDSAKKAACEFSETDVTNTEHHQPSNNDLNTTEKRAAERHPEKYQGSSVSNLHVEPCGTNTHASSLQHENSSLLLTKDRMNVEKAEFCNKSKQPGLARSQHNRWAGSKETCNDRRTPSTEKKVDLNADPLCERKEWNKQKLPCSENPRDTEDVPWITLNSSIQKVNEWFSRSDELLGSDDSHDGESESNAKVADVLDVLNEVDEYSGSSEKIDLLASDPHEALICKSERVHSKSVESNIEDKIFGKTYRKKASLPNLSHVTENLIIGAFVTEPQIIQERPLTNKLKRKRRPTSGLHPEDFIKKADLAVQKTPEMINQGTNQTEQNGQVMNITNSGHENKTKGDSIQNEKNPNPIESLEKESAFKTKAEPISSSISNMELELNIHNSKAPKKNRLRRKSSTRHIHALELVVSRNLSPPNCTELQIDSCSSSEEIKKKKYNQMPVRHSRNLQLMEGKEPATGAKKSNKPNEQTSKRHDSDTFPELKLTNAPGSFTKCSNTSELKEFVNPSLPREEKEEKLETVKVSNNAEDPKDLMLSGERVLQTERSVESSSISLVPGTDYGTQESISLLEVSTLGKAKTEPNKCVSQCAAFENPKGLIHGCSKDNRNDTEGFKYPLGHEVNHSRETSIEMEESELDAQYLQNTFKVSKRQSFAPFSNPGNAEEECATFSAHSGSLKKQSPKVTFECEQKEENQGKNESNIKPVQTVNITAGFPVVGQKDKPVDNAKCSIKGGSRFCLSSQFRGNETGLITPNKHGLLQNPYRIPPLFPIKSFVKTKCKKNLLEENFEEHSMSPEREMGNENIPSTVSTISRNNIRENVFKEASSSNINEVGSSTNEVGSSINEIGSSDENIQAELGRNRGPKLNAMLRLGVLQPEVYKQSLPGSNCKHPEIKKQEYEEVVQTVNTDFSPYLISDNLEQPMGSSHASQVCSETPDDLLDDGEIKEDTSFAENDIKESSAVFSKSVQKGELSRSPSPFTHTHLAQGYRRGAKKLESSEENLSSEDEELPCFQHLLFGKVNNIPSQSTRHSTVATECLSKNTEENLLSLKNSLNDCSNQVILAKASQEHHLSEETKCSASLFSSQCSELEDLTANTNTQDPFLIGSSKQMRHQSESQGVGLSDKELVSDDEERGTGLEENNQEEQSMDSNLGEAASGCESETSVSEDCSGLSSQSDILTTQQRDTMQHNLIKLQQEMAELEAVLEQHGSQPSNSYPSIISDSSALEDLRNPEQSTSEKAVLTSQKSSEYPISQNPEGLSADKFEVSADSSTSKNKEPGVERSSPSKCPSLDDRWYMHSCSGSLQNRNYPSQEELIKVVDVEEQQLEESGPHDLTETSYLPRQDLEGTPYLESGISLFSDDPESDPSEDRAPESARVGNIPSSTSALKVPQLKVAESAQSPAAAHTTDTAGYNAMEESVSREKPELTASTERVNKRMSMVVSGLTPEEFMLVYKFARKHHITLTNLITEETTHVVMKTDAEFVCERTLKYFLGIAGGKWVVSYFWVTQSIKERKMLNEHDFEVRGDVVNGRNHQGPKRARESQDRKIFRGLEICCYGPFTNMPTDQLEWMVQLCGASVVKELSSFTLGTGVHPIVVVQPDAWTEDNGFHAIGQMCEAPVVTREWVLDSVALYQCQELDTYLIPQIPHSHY

This assay has as its target Breast cancer type 1 susceptibility protein (Homo sapiens) (UniProt P38398). Description: qHTS Assay for Inhibitors of BRCT-Phosphoprotein Interaction (Red Fluorophore). The settings on record: BRCT-phosphopeptide binding, red fluorescence polarization; at 76.9 µM (top of the series). The protocol:
NIH Molecular Libraries Screening Centers Network [MLSCN]
NIH Chemical Genomics Center [NCGC]
PI Name: Natarajan, Amarnath; University of Texas
A complex of BRCT (C-terminal portion of BRCA1, MW ~35 kDa, His-tagged) and fluorescently labeled pBACH1 phosphorylated 10 aa peptide fragment of BACH1, a helicase implicated in DNA repair, is incubated with library members. Inhibitors of BRCT-pBACH1 binding are detected by a decrease in the fluorescence polarization (FP) of the fluorophore. In order to minimize the effect of fluorescence artifacts and to increase the overall robustness of the screen, the compound library members were incubated in separate reactions with rhodamine-labeled probe-protein complexes. Protein and labeled probes were supplied by Dr. Amarnath Natarajan, Department of Pharmacology and Toxicology, University of Texas Medical Branch Galveston, TX.
Assay Buffer: 16mM Na2HPO4, 4 mM NaH2PO4, 150 mM NaCl, 1 mM EDTA, 1 mM DTT, 0.02% NaN3, and 0.01% Tween 20 at pH 7.3. […]
Three uL of reagents were dispensed to 1536-well Greiner black solid-bottom plates. […] The plates were incubated for 12 min at room temperature, and then read on ViewLux (Perkin-Elmer) High-throughput CCD imager using BODIPY for the rhodamine-labeled decapeptide probe polarization filter sets. […]
(qHTS replaces the single test concentration by a dilution series.)
For `O=[N+]([O-])C(Cl)(Cl)Cl`, the activity change, negative = inhibition was inactive: -1.77%. As to `CN(CCCl)CCCl`, the activity change, negative = inhibition is inactive: -3.46%.

The values are drawn from PubChem BioAssay AID892 (National Center for Advancing Translational Sciences (NCATS), 2007).
